Among the data in ChEMBL document CHEMBL1141723, “Specific targeting of metzincin family members with small-molecule inhibitors: progress toward a multifarious challenge” (Bioorg Med Chem, 2008) are Ki and IC50 values, retold here.

Protein sequences, listed by entry. Tags and fused reporters are not part of them. Lines headed by an entry give the natural chain unless they say otherwise; changes in a name come on top.
UniProt P08253: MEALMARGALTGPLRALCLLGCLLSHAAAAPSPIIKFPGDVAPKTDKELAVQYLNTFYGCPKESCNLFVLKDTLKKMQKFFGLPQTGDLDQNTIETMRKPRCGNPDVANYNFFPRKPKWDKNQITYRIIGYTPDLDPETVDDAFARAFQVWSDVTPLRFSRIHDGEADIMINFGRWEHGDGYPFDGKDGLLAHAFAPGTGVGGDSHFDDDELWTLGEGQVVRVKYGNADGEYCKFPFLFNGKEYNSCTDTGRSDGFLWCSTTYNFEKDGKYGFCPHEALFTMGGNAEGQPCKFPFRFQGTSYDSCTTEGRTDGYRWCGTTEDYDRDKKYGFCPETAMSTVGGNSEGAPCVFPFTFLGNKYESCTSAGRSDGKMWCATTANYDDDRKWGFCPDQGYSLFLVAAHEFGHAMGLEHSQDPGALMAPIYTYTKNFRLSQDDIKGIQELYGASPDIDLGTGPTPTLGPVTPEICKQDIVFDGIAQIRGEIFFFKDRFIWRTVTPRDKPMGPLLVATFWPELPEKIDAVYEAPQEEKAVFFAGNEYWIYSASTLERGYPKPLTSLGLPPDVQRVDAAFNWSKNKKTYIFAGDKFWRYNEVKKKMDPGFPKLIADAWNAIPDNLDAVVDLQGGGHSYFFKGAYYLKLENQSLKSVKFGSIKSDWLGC

The target in experiment [1] is 72 kDa type IV collagenase (Homo sapiens, UniProt P08253).
In experiment [2] the target is T1, Disintegrin and metalloproteinase domain-containing protein 33 (Homo sapiens, UniProt Q9BZ11).
T1 sequence (Q9BZ11 whole entry): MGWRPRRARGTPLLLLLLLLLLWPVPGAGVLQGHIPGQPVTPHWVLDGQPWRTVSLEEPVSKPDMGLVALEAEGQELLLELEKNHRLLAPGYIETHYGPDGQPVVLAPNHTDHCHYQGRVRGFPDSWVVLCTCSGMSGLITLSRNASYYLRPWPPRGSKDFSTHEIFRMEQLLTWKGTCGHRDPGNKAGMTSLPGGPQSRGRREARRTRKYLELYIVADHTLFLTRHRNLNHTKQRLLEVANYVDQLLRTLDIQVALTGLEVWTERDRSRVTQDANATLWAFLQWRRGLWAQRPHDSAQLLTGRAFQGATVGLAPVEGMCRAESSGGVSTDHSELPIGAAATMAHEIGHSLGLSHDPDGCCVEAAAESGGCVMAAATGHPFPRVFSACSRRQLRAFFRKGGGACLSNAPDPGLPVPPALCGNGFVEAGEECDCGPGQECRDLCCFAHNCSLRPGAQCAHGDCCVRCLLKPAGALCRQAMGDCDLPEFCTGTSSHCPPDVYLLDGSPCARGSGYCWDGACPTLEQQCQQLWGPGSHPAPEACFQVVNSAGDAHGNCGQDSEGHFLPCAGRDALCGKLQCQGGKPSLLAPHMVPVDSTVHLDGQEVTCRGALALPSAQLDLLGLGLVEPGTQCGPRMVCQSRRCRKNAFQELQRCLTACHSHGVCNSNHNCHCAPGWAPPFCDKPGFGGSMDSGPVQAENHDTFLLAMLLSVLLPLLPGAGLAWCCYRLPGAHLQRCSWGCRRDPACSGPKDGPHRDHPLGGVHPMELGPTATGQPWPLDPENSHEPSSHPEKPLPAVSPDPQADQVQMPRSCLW
Nature of the experiment: Inhibition of ADAM33.

A further experiment concerns the target T2, Matrilysin (Homo sapiens, UniProt P09237).
T2 sequence (P09237 whole entry): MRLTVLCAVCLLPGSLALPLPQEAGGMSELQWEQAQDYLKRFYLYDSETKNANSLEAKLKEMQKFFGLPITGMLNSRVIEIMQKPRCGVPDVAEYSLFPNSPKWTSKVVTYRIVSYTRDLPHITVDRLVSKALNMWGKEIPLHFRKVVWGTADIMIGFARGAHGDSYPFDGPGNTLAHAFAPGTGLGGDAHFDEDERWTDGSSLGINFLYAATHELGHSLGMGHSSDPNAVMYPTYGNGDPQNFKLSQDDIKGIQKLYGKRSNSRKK

Broadly, the Ki is the equilibrium dissociation constant of an inhibitor or competing ligand from its target. In the case of `CS(=O)(=O)NCc1noc([C@H](CCCC2CCCCC2)CC(=O)NO)n1`, in experiment [1], the Ki is more than 100 µM.
Broadly, the IC50 is the concentration that inhibits the measured activity by half. Low values mean higher potency, high ones lower potency. As to `CN1CC2(CC2)C[C@H](C(=O)NO)[C@H]1C(=O)N1CCN(c2ccc(C(F)(F)F)cn2)CC1`, the IC50 was 4.12 µM in experiment [2], more than 5 µM in experiment [1] and more than 5 µM against Matrilysin.
